Measured affinities in a library of Ab-14 heavy chain variants

The target is the same throughout: PDVDLGDISGINAS, from the HR2 region of SARS-CoV-2 spike.

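The variants were designed computationally from a first round of random CDR variants and then made and measured. Group labels follow the data file (Ctrl: baseline library sampled from a position-specific scoring matrix, with some repeated check sequences; Rand: our label for a block that the file lists under HC and that is probably the random mutants of the ten best first-round binders; En: ensemble of fine-tuned language models; GP: Gaussian process model; GPLM: also part of the Gaussian process libraries; HC: hill climbing; Gen: genetic algorithm; Gibbs: Gibbs sampling; a sequence that several methods proposed may carry one label only). In AlphaSeq, yeast of one mating type display the scFv and yeast of the other type display the target. The frequency of each diploid, read from paired DNA barcodes, reflects how well the two displayed proteins bind. Read counts were normalised to the haploid input and turned into Kd by a linear fit to BCL2-family pairs of known affinity, for each replicate. Mating was done six times.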

The variants keep the light chain, the linker and the frameworks of Ab-14 (scFv order VH, the linker GGGGSGGGGSGGGGS, VL).
VH: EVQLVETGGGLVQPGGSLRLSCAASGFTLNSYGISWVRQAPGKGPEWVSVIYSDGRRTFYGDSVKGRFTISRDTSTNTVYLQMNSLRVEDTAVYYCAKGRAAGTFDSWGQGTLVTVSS
VL: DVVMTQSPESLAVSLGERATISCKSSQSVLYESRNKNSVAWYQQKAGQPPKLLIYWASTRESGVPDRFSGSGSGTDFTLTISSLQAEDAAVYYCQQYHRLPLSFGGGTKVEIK

The parent's heavy chain CDRs are GFTLNSYGIS, VIYSDGRRTFYGDSVK, GRAAGTFDS; each variant's own CDRs replace them letter for letter. Values are apparent Kd, the geometric mean of the replicates that gave a signal; lower means stronger binding. "nd" marks a missing value. The strain was present, yet no cells mated with the target were sequenced in any replicate, which points to weak or no binding. Background: pairings of all heavy chain designs with three empty control strains gave a value in 1% of cases (median 120 nM, 5th percentile 7.0 nM). Values in that range, when seen in few replicates, are hard to tell from nonspecific mating. In the paper, a design with two or fewer of six values counts as a poor binder. Of ten entries with the parent sequence, four were seen in most replicates (averages 2.2 nM to 240 nM), three in one and three in none, so single entries are noisy. A sequence measured in both rounds can read differently, since the two assays cover different ranges.

CDR-H1 | CDR-H2 | CDR-H3 | group | apparent Kd | seen in
GYDIQDYGIS | VIYADGVRTVYHDSVK | GQLAGSFIT | En_Gibbs | 4.5 nM | 6 of 6
GFNLNEVGIS | VIYADGLRSAYVDSVK | GGVVAVDFV | En_Gibbs | nd | 0 of 6
GKSLNDYGIS | VIYSDGRRTFYGDWVK | GRTAGTFDS | GP_Gibbs | nd | 0 of 6
GFSLDEYGIS | VIYADGVRQFYCDDVK | GGIAGTFLY | En_Gibbs | 74 nM | 6 of 6
GFDLNEYGIS | VIYADGVRTAYADSVK | GEQAGTFDV | En_Gen | 1.0 nM | 6 of 6
GFTLNSYGGS | VIYSDGRRTFYSDSVK | GRAAGTFDS | Ctrl | nd | 0 of 6
GFTLNSYGIS | VIYSDGRRTFYADSVK | IREACTFDS | Ctrl | nd | 0 of 6
GFTLNSYGYS | VIYSDGRRTFYGDSVK | GRAAGTFDS | Ctrl | nd | 0 of 6
GFWLNSYGIS | VIYSDGRRTFYADSVK | GSAAGTFDS | GP_Gibbs | 97 nM | 3 of 6
GNTLNEYGIS | VIYSDGRRTFYTDSVK | GRLAGTFDS | GP_HC | 1.2 nM | 5 of 6
GFTLNMYGIS | VIYSDGRRTIYSDSVR | GHAAGTFKS | Ctrl | nd | 0 of 6
GFTLKEYGIS | VIYSDGRRTFYGDSVK | GRAAVTFDM | GP_HC | nd | 0 of 6
GFDLNEYGIS | VIYADGRRTSYIDSVK | GEVAGTFDA | En_HC | 610 pM | 6 of 6
GFDLNEYGIS | VIYADGMRTAYADNVK | GENAGTFDV | En_Gen | 180 pM | 6 of 6
GFELNEYGIS | VIYSDGRRTFYGDSVK | GKAAGTFDV | GP_Gen | 2.2 nM | 6 of 6
GFSLNEYGIS | VIYSDGRRTFYGDWVK | GRNAGTFDS | GP_Gen | 13 nM | 4 of 6
GFDLDEYGIS | VIYADGMRTAYADDVK | GNNAGTFDI | En_Gen | 1.1 nM | 6 of 6
GFDLNSYGIS | VIYSDGRRTFYIDSVK | GRAAGTFDA | GP_HC | 2.4 nM | 6 of 6
GFDLNSYGIS | VIYSDGRRTFYSDSVK | GRLAGTFDS | GPLM_Gen | 260 pM | 6 of 6
GFTLNSYGIS | VIYADGRRTFYGDSVK | GRAMCTNKS | Rand | nd | 0 of 6
GFEIQDYGIS | VIYADGLRTAYSDKFK | GIIAGTINV | En_Gibbs | 15 nM | 6 of 6
GFTNNSYGIS | VIYSDGRRTFYGDSVK | GTAAGTFDS | Ctrl | 9.7 nM | 6 of 6
GFSLNSYGIS | VIYSDGRRTFYIDSVK | GRSAGTFDS | GPLM_Gen | nd | 0 of 6
GFDLGEYGIS | VIYADGSRKAYATDFK | GGSGYKDGV | En_Gibbs | 900 nM | 2 of 6
GVDLNSYGIS | VIYSDGRRTFYGDSVK | GRAAGTFDS | Ctrl | 3.1 nM | 6 of 6
GFDLNSYGIS | VIYSDGRRTFYIDSVK | GKAAGTFDA | GP_Gen | 730 pM | 6 of 6
GFALNSYGIS | VIYSDGRRTFYGDSVK | GGAAGTFDS | Ctrl | 10 nM | 5 of 6
GFTLNDYGIS | VIYSDGRRTFYGDSVK | GRALMTKIS | Rand | nd | 0 of 6
GFSLNSYGIS | VIYSDGRRTFYHDSVK | GWMAGTFDS | GP_Gibbs | 2.5 nM | 6 of 6
GFTLNSYGIS | VIYSDGRRTFYGDSTK | GYAAGTFDS | Ctrl | nd | 0 of 6
GFTLNSYGIS | VIYSDGFRTFYGDSVK | GRAAGGFDD | Ctrl | nd | 0 of 6
GQDLNEYGIS | VIYADGLRTAYLNNVK | GVNAGFDQY | En_Gibbs | 56 nM | 5 of 6
GFDLNEYGIS | VIYADGMRTAYTDSVK | GANAGTFDI | En_Gen | 260 pM | 6 of 6
GFDLNSYGIS | VIYSDGRRTFYGDSVS | GRAGLTYDS | Ctrl | nd | 0 of 6
GFHLNDYGIS | VIYSDGRRTFYSDSVK | GRAKGTFDS | Ctrl | nd | 0 of 6
GFDLNEYGIS | VIYADGMRTAYTDSVK | GNTAGTFDT | En_Gen | 120 pM | 6 of 6
GFDLNEYGIS | VIYADGRRYHYQDSVK | GNVVGSVLY | En_Gibbs | nd | 0 of 6
GFDINEYGIS | VMYADGSRVVYQDNVK | GFQGGTFDM | En_Gibbs | 56 nM | 5 of 6
GFTLNDYGIS | VIYSDGRRTFYGDSVK | GQTAGTFDK | GP_Gibbs | 2.7 nM | 6 of 6
GFDLNEYGIS | VIYADGRRTAYADSVK | GEVAGTFDS | En_HC | 310 pM | 6 of 6
GFDLDEYGIS | VIYADGQRTAYSDSVK | GNNAGTFDI | En_Gen | 650 pM | 6 of 6
GNNLDEYGIS | VIYADGQRSAYAQSVK | GETGDNAMT | En_Gibbs | 420 nM | 1 of 6
GFDLDEYGIS | VIYADGKRTAYADDVK | GNNAGTFDV | En_Gen | 900 pM | 6 of 6
GFNLNLYGIS | VIYSDGRREFYGDSVK | GNAAGFSHS | Ctrl | 57 nM | 1 of 6
GFTLESYGIS | VIYSDGRRTFYADSVK | GKAAGTFDK | GPLM_Gibbs | 3.2 nM | 6 of 6
GFDLNEYGIS | VIYADGKRTAYADNVK | GETAGTFDV | En_Gen | 400 pM | 6 of 6
GFDLDEYGIS | VIYADGKRTAYADKVK | GNVAGTFDL | En_Gen | 750 pM | 6 of 6
GFTLNSYGIS | VIYSDGRRTFYGDSVK | GRHAGTFDT | GPLM_Gen | nd | 0 of 6
GFDLNEYGIS | VIYADGSRTAYADSVK | GENAGTFDL | En_Gen | 560 pM | 6 of 6
GFTLNDYGIS | VIYSDGRRTFYSDSVK | GRTAGTFFS | GP_HC | 95 nM | 1 of 6
GFDLNEYGIS | VIYADGQRTAYADNVK | GQNAGTFDV | En_Gen | 650 pM | 6 of 6

The closing 7 entries, repeated:

CDR-H1	CDR-H2	CDR-H3	group	apparent Kd	seen in
GFTLESYGIS	VIYSDGRRTFYADSVK	GKAAGTFDK	GPLM_Gibbs	3.2 nM	6 of 6
GFDLNEYGIS	VIYADGKRTAYADNVK	GETAGTFDV	En_Gen	400 pM	6 of 6
GFDLDEYGIS	VIYADGKRTAYADKVK	GNVAGTFDL	En_Gen	750 pM	6 of 6
GFTLNSYGIS	VIYSDGRRTFYGDSVK	GRHAGTFDT	GPLM_Gen	nd	0 of 6
GFDLNEYGIS	VIYADGSRTAYADSVK	GENAGTFDL	En_Gen	560 pM	6 of 6
GFTLNDYGIS	VIYSDGRRTFYSDSVK	GRTAGTFFS	GP_HC	95 nM	1 of 6
GFDLNEYGIS	VIYADGQRTAYADNVK	GQNAGTFDV	En_Gen	650 pM	6 of 6

The measurements come from Li et al. 2023 (doi:10.1038/s41467-023-39022-2) through the FLAb antibody collection.